Two molecules from PubChem BioAssay AID1645882 (National Center for Advancing Translational Sciences (NCATS), 2021) can be followed below.

Amino acid sequences for entries named in this document (tags omitted). A change or cut given only in a name is not applied to a line headed by its entry.
UniProt O95398: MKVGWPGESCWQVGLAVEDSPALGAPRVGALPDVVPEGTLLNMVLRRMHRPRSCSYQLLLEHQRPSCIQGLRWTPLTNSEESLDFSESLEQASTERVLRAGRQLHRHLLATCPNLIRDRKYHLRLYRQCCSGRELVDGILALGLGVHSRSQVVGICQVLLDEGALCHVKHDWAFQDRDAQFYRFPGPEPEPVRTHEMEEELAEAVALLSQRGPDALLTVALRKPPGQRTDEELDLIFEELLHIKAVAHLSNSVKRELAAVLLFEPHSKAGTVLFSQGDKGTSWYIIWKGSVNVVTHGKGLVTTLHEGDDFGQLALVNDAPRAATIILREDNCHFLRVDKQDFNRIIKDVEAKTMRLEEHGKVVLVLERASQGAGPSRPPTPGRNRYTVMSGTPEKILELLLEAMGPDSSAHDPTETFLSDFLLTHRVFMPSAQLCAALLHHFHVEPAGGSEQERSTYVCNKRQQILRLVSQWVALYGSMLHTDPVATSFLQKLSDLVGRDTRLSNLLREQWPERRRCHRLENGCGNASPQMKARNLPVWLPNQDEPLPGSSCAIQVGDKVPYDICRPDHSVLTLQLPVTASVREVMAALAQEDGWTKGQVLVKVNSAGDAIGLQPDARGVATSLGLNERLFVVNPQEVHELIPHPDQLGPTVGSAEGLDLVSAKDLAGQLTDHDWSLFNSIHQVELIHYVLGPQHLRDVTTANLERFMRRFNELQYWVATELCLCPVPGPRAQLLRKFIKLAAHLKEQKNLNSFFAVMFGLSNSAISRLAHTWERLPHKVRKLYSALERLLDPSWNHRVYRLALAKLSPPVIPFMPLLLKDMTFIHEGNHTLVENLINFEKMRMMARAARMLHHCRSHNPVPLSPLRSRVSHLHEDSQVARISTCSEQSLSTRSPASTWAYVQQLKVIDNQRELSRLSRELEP

The entries are a selection whose mix differs from that of the whole data set. Results filed as inconclusive are left out. Calls of active or inactive are those of the source. The call rests on the fitted dose curve; in most records, active means well fitted inhibition curve with a large enough effect; inconclusive means small, poorly fitted or top-dose-only effect; inactive means no such curve, though single readings can be large or run the other way.
Potency means the concentration at half of the fitted maximal effect.

The test addresses Rap guanine nucleotide exchange factor 3 (Homo sapiens) (UniProt O95398). The experiment in a line: Validation qHTS for antagonist of cAMP-regulated guanine nucleotide exchange factor 3 (EPAC1). Further: nearly all actives have a fitted effect of over 75% in size. To be noted: EPAC1 Rap1B-BODIPY-GDP exchange, fluorescence. An excerpt:
Assay Provider (PI): Xiaodong Cheng Ph.D.
The University of Texas Medical Branch, […], TX
In multi-cellular eukaryotic organisms, the effects of cAMP are transduced by two ubiquitously-expressed intracellular cAMP receptors, the classic protein kinase A/cAMP-dependent protein kinase (PKA/cAPK) and the more recently discovered exchange protein directly activated by cAMP/cAMP-regulated guanine nucleotide exchange factor (EPAC/cAMP-GEF). Both PKA and EPAC are ubiquitously expressed in all tissues, and an increase in intracellular cAMP levels will lead to the activation of both PKA and EPAC. […]
This qHTS will be used to screen the Molecular Libraries Small Molecule Repository (MLSMR) as a concentration-titration series using the NCGC unique quantitative screening (qHTS) platform to find activators for EPAC1. […] Activators are identified by monitoring the change in fluorescence signal as the exchanged free BODIPY-GDP has a reduced fluorescence compared to Rap1-bound BODIPY-GDP. […]
Briefly, three uL of reagents (100 nM EPAC1, 250 nM RAP1B-BODIPY-GDP, 50 uM GDP) were dispensed into a 1536-well Greiner black solid-bottom medium binding assay plate. […] The assay plates were read at 5 minute intervals for 30 minutes in the ViewLux plate reader using 480nm excitation and 540nm emission filters. […]
As for `CCC(=O)O[C@H]1[C@H](O[C@@H]2[C@@H](C)[C@H](O[C@H]3C[C@@](C)(OC)[C@@H](O)[C@H](C)O3)[C@@H](C)C(=O)O[C@H](CC)[C@@](C)(O)[C@H](O)[C@@H](C)C(=O)[C@H](C)C[C@@]2(C)O)O[C@H](C)C[C@@H]1N(C)C`, the Potency was active: 44.7 µM.
Take `C=C1CCC(O)C/C1=C\C=C1/CCCC2(C)C1CCC2C(C)CCCC(C)C` (configuration not stated): the Potency is active: 44.7 µM.
